Results published in patent US6429204B1, “Method of inhibiting cancer growth” (University of Miami, priority 1997, dated 2002).

How the values were obtained:
E-10 Cells = assay: MTS cytotoxicity assay, E-10; conditions: two days
COLO 205 Cells = assay: MTS cytotoxicity assay, COLO 205; conditions: two days

Measured: percent cytotoxicity

tetracycline pyrazole [CMT-5]
0%: E-10 Cells; 5 μM | E-10 Cells; 10 μM | E-10 Cells; 20 μM | E-10 Cells; 50 μM | E-10 Cells; 100 μM | COLO 205 Cells; 5 μM | COLO 205 Cells; 10 μM | COLO 205 Cells; 20 μM | COLO 205 Cells; 50 μM | COLO 205 Cells; 100 μM
